Laboratory results from US7446095B2, “Peptides modulating caspase activation” (priority 2002, dated 2008).

Test system: caspase-3 activation (DEVDase activity)
Test: dATP-dependent Cyt c-induced caspase-3 (DEVDase) activation in cell-free cytosolic extracts of HepG2 cells
Assay type: biochemical, human
Conditions: protein 7 μM with dATP 1 mM, no exogenous cyt-c, up to 2 h
Method: Peptides in the concentration of 750 μM were added to the cell extracts 15 min before the cytochrome c addition. Caspase activation was monitored by the cleavage of caspase-3-specific fluorogenic substrate DEVD-AMC.
HepG2, human hepatocarcinoma cells and human monoblastoma cell line U937 originated from American Type Culture Collection. Cell extracts were prepared by lysing cells in a hypotonic extraction buffer. To obtain the cytosolic S-100 fraction, the cell lysate was centrifuged for 1 h at 100,000×g. Extracts were either used immediately or frozen at −70° C. for later use.
Cell-free reactions were typically set up in 13-μl reaction volumes. […] For 13-μl scale reactions, 10 μl of cell extract (˜2-4 mg/ml, as determined by the Bradford assay) were supplemented with 1 μl of dATP, 1 μl of Cyt c and/or AFP solutions in reaction buffer to receive necessary final concentration of reagents. […]
At the end of a caspase activation reaction, extract aliquots (5 μl) were supplemented with fluorogenic substrate DEVD-AMC (3 mM) and then incubated for definite time intervals (0.5-1 h) at 37° C. Reactions were terminated by dilution with addition of 2.0 ml of ice-cold 0.2 mM sodium phosphate buffer, pH 7.5, followed by a measurement of fluorescence with a Perkin Elmer MPF-44A (λexc=365 nm and λem=440 nm ) fluorometer. […]

## HSA: Human serum albumin, added in equivalent amount as control protein [reference compound]
  Induction of caspase-3-specific DEVDase activity in S100 cytosolic extract (in words): no effect
